The results in this text go back to patent US11793797B2, “Uses of a lysyl oxidase-like 2 inhibitor” (PHARMAKEA, INC., priority 2016, dated 2023).

The test system of the assay is bleomycin-induced lung fibrosis. The assay is described as follows: Mouse oropharyngeal bleomycin model of lung fibrosis. Format: in vivo. The following applies: tested form: HCl.

For `NCc1cc(Oc2cccc(C(=O)N3C[C@@H](O)[C@H](F)C3)c2)nc(C(F)(F)F)c1` (relative stereo), under “prophylactic 14-day dose response, oral QD”, the “minimal dose to achieve maximal anti-fibrotic efficacy” value is reported as 30 mg/kg. Besides, the “Ashcroft score (lung fibrosis), dose frequency” value (prophylactic, oral 60 mg/kg QD, Q2D or Q3D, Day 14) is listed as “reduced lung fibrosis”. The “Ashcroft score (lung fibrosis), dose response” value (prophylactic, oral 3, 10, 30 or 60 mg/kg/day, lungs harvested Day 14) is “reduced fibrosis in a dose-related manner”.
